Assay results as given in paper PMC7365253 (Journal of the American Chemical Society, 2020).

Chains of the proteins cited; added tags and fusions are not shown. Residues count along the entry.
UniProt P00813, 2-363: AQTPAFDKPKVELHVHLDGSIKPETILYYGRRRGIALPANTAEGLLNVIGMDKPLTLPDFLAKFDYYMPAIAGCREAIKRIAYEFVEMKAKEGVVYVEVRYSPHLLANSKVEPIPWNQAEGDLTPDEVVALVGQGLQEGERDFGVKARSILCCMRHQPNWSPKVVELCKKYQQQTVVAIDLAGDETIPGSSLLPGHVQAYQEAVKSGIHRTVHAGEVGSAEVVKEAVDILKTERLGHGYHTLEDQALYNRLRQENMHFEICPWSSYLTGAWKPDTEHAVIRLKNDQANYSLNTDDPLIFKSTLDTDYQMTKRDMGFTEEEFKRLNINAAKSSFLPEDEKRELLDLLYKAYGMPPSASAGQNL

Biological target: adenosine deaminase (ADA) (Homo sapiens, UniProt P00813)

Nc1nc(Cl)nc2c1ncn2[C@H]1C[C@H](O)[C@@H](CO)O1 [Cladribine]
recombinant ADA enzymatic activity assay, 10 μM: a result similarly observed for treatment of the active-site inhibitor Cladribine during the assay (Figure 6D)
